Consider one substance from patent US11096891B2, “Hybrid muco-adhesive delivery systems and use thereof” (TECHNION RESEARCH & DEVELOPMENT FOUNDATION LIMITED, priority 2016, dated 2021).

In this test the test system is CAL-27 cells. In words: Flow cytometry of fluorescently labeled Cetuximab binding. Format: cell-based, human. The note with it: 1 μg/ml and 0.5 μg/ml antibody. From the text:
In order to examine the affinity of the Cetuximab to human tongue squamous cell carcinoma CAL-27 cells, the commercial antibody and its isotype control IgG antibody was fluorescently labeled.
To optimize the amount of antibody required, staining of CAL-27 cells with decreasing antibody concentration was examined using cell cytometry (FIG. 22A).
Next, the difference in antibody binding to normal human dermal fibroblasts (NHDF) versus cancer cells (CAL-27) was examined (FIG. 22B-D). The same concentrations of isotype control antibody were used.
To examine the ability to deliver liposomes loaded with antibodies and to test the antibody affinity, CAL-27 cells were treated with Cetuximab loaded liposomes in comparison to IgG isotype control loaded liposomes and to free antibody (FIG. 22E). […] Liposomal delivery of proteins into cancer cells and to cancer cell membrane.
A general note: A flow cytometer gives signals particle by particle.

With “Cetuximab: monoclonal antibody that targets the epidermal growth factor receptor (EGFR)”, the “Fluorescence intensity of antibody binding, cancer cells versus NHDF” value was “significantly higher than for NHDF”.
